Source: article PMC8623179, “Design and Microwave Synthesis of New (5Z) 5-Arylidene-2-thioxo-1,3-thiazolinidin-4-one and (5Z) 2-Amino-5-arylidene-1,3-thiazol-4(5H)-one as New Inhibitors of Protein Kinase DYRK1A” (Pharmaceuticals, 2021)
Where two headings read alike, the source gives them in different places.

Legend:
[1] = target: Casein kinase 1 (CK1δ/ε); experiment: CK1δ/ε kinase assay; assay type: biochemical, porcine; details: read-out: IC50 CK1
[2] = target: DYRK1A (Rattus norvegicus, UniProt Q63470); experiment: DYRK1A kinase assay
[3] = target: T1, CDK5/p25 (Homo sapiens, UniProt Q00535); experiment: CDK5/p25 kinase assay; assay type: biochemical
T1 construct: made in house

[4] = target: GSK-3α/β; experiment: GSK-3α/β kinase assay; assay type: biochemical, porcine; details: read-out: IC50 GSK3α/β
[5] = target: T1, CDK5/p25; details: positive control, cited from earlier work

Measured: IC50

COc1ccc(/C=C2\SC(=S)NC2=O)cc1OC [Compound 3d, (5Z)-5-(3,4-Dimethoxybenzylidene)-2-thioxo-1,3-thiazolidin-4-one]
> 10 µM: [1] | [2] | [3] | [4]

COc1ccc2c(c1)[nH]c1c(C)nccc12 [Harmine]
> 10 µM: [5]; Table 4 | [5]; Table 5, same values as Table 4
